The conditions of the data set: PAMPA. In general terms: PAMPA measures passive passage across an artificial lipid membrane.

Regarding `NC(=O)N1c2ccccc2C=Cc2ccccc21` [Cz, Carbamazepine], the Permeability is listed as 11 ± 1 ×10^−6 cm/s.

For the origin of these results see US20260258087A1, “PHARMACEUTICAL COMPOSITION FOR PREVENTING OR TREATING HEPATITIS B” (GWANGJU INSTITUTE OF SCIENCE AND TECHNOLOGY, priority 2022, published 2026).
